This note sets out measurements from publication PMC5249144, “T Cell Subset and Stimulation Strength-Dependent Modulation of T Cell Activation by Kv1.3 Blockers” (PLoS ONE, 2017).

Sequences of proteins named here, by UniProt entry; tags and fusion partners are left off.
UniProt P22001, whole entry: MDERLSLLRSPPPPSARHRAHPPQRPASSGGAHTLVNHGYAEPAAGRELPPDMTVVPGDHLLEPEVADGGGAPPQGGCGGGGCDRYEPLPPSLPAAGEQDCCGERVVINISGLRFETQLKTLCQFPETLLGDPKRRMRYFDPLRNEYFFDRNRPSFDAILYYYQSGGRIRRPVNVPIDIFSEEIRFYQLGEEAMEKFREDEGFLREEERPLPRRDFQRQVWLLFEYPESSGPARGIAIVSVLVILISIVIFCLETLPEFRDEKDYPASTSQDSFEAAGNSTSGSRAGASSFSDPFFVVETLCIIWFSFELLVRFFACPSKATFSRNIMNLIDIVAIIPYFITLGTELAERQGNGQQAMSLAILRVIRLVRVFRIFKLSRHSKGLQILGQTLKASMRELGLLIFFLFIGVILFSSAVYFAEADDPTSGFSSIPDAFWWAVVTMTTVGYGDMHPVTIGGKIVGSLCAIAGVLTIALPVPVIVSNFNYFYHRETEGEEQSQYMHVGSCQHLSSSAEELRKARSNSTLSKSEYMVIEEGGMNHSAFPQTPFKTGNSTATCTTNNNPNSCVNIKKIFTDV

The target of experiment [1] is T1, endogenous Kv1.3 in human CD4 T cells (Homo sapiens, UniProt P22001).
T1 construct: OsK1 potency on endogenous Kv1.3 in human CD4 T cells; endogenous in cells; host or cells: human primary CD4 T cells purified from donor PBMC
The experiment in a line: Manual patch clamp, endogenous Kv1.3 currents in human primary CD4 T cells. Format: cell-based. Particulars: OsK1 on endogenous Kv1.3, human primary CD4 T cells, manual whole-cell patch clamp, room temperature, step to +40mV, holding –80mV, pH 7.4. As to the method:
The potency of OsK1 peptide against voltage-gated currents in human primary CD4 T cells and CHO cells stably transfected with recombinant human Kv1.3 was measured in a manual patch clamp assay, as previously described. Briefly, T cells or transfected CHO cells were plated onto glass coverslips in a bath on the stage of an inverted microscope and perfused (approximately 1ml/min) with extracellular solution of the following composition: 137mM NaCl, 2mM CaCl2, 5.4mM KCl, 1mM MgCl2, 5mM glucose, and 10mM HEPES, 0.1% bovine serum albumin, pH 7.4. […] All recordings were made at room temperature (22–24°C) using a Multiclamp 700A amplifier and pClamp 9 software (Axon Instruments). Outward potassium currents were measured using the whole-cell configuration of the patch-clamp technique. […]
CD4 T cells were purified from human PBMC as described in the T cell purification section. […] Expression levels of CD25 and CD69 on activated T cells were monitored in flow cytometer after staining with fluorescent dye conjugated specific antibodies (eBiosciences). […]
To investigate the role of Kv1.3 in T cell activation, we tested different Kv1.3 blockers in our T cell assays. […] The IC50 values of different Kv1.3 blockers determined on CHO transfected cells were similar to those published in other studies.

The subject of experiment [2] is House dust mite-specific T cell. Format: cell-based, human. Particulars: 3 h. The method, then:
T cells were cultured in 96-well plates (Thermo Scientific) with 200μl medium/well. Culture medium was RPMI-1640 medium supplemented with 2% human A/B serum (Valley Biomedical Prod & Srv Inc.), 2 mM glutamine, 1mM sodium pyruvate, 10mM HEPES, 1mM MEM nonessential amino acid solution, and 100 U/ml each of penicillin G and streptomycin (all culture reagents from Life Technologies except for human serum). T cells were pre-treated with Kv1.3 blockers and other inhibitors for 30 minutes before stimulation. All assays were conducted with samples in duplicates or triplicates.
For T cell pan-activation with beads coated with anti-CD3 and anti-CD28 (eBioscience), T cells at 2 x 10^5 cells/well in 96-well flat-bottom plates were stimulated overnight with anti-CD3 and anti-CD28 coated beads (Miltenyi Biotec) at 2:1 bead/cell ratio or as indicated. For T cell pan-activation with anti-CD3, T cells at 5 x 10^4 cells/well in 96-well U-bottom plates were stimulated for 2 days with 1ng/ml of anti-CD3 in the presence of mitomycin C treated autologous PBMC at 1:1 T cell/PBMC ratio. […]
(§1) Proliferation of T cells was measured by overnight pulsing with 1μCi/well of ^3H-thymidine (Perkin Elmer). […] Filter plates were soaked with scintillant (Perkin Elmer) and radioactivity was counted using a Topcount (Packard).

The next experiment has as its system CD4 naïve cell. Particulars: 3 h.
Source text: (§2) Human PBMC were purified from donor blood by Ficoll-Paque (GE Healthcare) density centrifugation. CD4 or CD8 T cells were purified from human PBMC by negative selection using human CD4 or CD8 T cell isolation kit (Miltenyi Biotec) respectively. Naïve or memory CD4 T cells were isolated from CD4 T cells by negative selection using human naïve or memory CD4 T cell isolation kit (Miltenyi Biotec) respectively. Central and effector memory CD4 T cells were separated from memory CD4 T cells using biotinylated anti-CCR7 (BD Biosciences) and streptavidin coated magnetic beads (Miltenyie Biotec). Cells after treatment with antibodies and magnetic beads were purified with autoMACS (Miltenyi Biotec).
(§3) T cells were cultured in 96-well plates (Thermo Scientific) with 200μl medium/well. Culture medium was RPMI-1640 medium supplemented with 2% human A/B serum (Valley Biomedical Prod & Srv Inc.), 2 mM glutamine, 1mM sodium pyruvate, 10mM HEPES, 1mM MEM nonessential amino acid solution, and 100 U/ml each of penicillin G and streptomycin (all culture reagents from Life Technologies except for human serum). T cells were pre-treated with Kv1.3 blockers and other inhibitors for 30 minutes before stimulation. All assays were conducted with samples in duplicates or triplicates. […]
as §1
(§4) In order to further understand the activity profile of Kv1.3 blockers on T cells, we compared the effects of Kv1.3 blockers on primary naïve, central memory and effector memory CD4 T cells. […] Purified T cells were activated with anti-CD3 in the presence of mitomycin C treated PBMC and the effects of Kv1.3 blockers on T cell proliferation were monitored and compared to cyclosporine A and BTP2.

The test system of a further experiment is CD4 Tem cell. Particulars: 3 h.
Source text: as §2, §3, §1, §4

The subject of a further experiment is CD4 Tcm cell. Particulars: 3 h.
Source text: as §2, §3, §1, §4

Experiment [3] concerns CD4 T cell. The experiment is described as follows: Thapsigargin stimulated CD4 T cell proliferation. The class given is cell-based, human. Particulars: thapsigargin (10μM or other concentrations, 20 hours). As to the method: (§5) Heparinized human blood was diluted with an equal volume of IMDM medium (Life Technologies) supplemented with 2% normal human A/B serum and plated at 200μl/well in 96-well plates for thapsigargin (Alomone) stimulation. CD4 T cells were plated at 5 x 10^5 cells/well in 96-well plates with 200μl medium/well. Blood or T cell samples were pre-treated with blockers or inhibitors for 30 minutes prior to stimulation with thapsigargin at 10μM or other concentrations as indicated for 20 hours. Cytokines in culture supernatants were measured as described in cytokine detection section.
Proliferation of T cells was measured by overnight pulsing with 1μCi/well of ^3H-thymidine (Perkin Elmer). Cells with incorporated radioactive thymidine were harvested onto glass fiber filter plates (Perkin Elmer). Filter plates were soaked with scintillant (Perkin Elmer) and radioactivity was counted using a Topcount (Packard).

The test system of experiment [4] is CD4 T cell. The experiment is described as follows: Thapsigargin stimulated CD4 T cell IL-2 production. Format: cell-based, human. Particulars: thapsigargin (10μM or other concentrations, 20 hours), ELISA, read-out: IL-2, Potency (IC50). The method, then:
as §5
Cytokines in supernatants collected from blood or T cell cultures were measured with ELISA or electrochemiluminescent assays. IL-2 was measured by ELISA using the human IL-2 Quantikine Kit (R&D Systems). Other cytokines were detected using multiplex human cytokine electro-chemiluminescent kit (Meso Scale Discovery).

For experiment [5], the target named is T2, human Kv1.3 channels on transfected CHO cells (Homo sapiens, UniProt P22001).
T2 construct: expressed in transfected cells
The experiment is described as follows: Manual patch clamp, recombinant human Kv1.3 in stably transfected CHO cells. Particulars: manual whole-cell patch clamp, room temperature (22–24°C), step to +40mV (some +20 or +30mV), holding –80mV, 0.1% BSA, pH 7.4. Format: cell-based. Background: In patch-clamp work, channel activity is measured electrically.

On to `CC[C@H](C)[C@@H]1NC(=O)[C@H](CCCCN)NC(=O)[C@@H](NC(=O)[C@H](CCCCN)NC(=O)[C@@H](NC(=O)[C@H](CC(N)=O)NC(=O)[C@@H](NC(=O)[C@@H](NC(=O)[C@@H](NC(=O)CN)C(C)C)[C@@H](C)CC)[C@@H](C)CC)C(C)C)CSSC[C@@H]2NC(=O)[C@H](CCCCN)NC(=O)CNC(=O)[C@H](Cc3ccccc3)NC(=O)[C@H](CCCNC(=N)N)NC(=O)[C@H](CCSC)NC(=O)CNC(=O)[C@H](C)NC(=O)[C@H](CCCCN)NC(=O)[C@H](CCCCN)NC(=O)[C@@H]3CSSC[C@@H](C(=O)N[C@H](C(=O)N4CCC[C@H]4C(=O)N[C@@H](CCCCN)C(=O)O)[C@@H](C)O)NC(=O)[C@H](Cc4c[nH]cn4)NC(=O)[C@H](CSSC[C@H](NC(=O)[C@H](CCC(N)=O)NC(=O)[C@H](CCCNC(=N)N)NC(=O)[C@H](CO)NC1=O)C(=O)N[C@@H](CC(C)C)C(=O)N[C@@H](CCC(=O)O)C(=O)N1CCC[C@H]1C(=O)N3)NC(=O)[C@H](CCCCN)NC(=O)CNC(=O)[C@H](CC(N)=O)NC(=O)[C@H](CCSC)NC2=O` [OsK1], for which the IC50 was 16.2 ± 2.3 pM in experiment [1]; 41.6 ± 26.1 pM in experiment [2]; 776 ± 180 pM with CD4 naïve cell; 51.1 ± 5.7 pM in the experiment on CD4 Tem cell; 95.6 ± 41.8 pM in the experiment with CD4 Tcm cell; 40 ± 2.8 pM in the experiment with CD4 T cell [3] (read-out: Proliferation, Potency (IC50)). Moreover, the IC50 with CD4 T cell [4] worked out at 6.8 ± 3.1 pM; in experiment [5], 19 ± 4 pM. The “Proliferation, Efficacy (%Inhibition)” value in experiment [2] (10 μg/ml) worked out at 58.9 ± 4.3%; in the experiment on CD4 T cell [3] it was 35.5 ± 3.7%.
